In patent US11548914B2, “IL-2Rgamma binding compounds” (MEDIKINE, INC., priority 2018, dated 2023):

Assays:
IL-2 receptor subunit = conditions: cells expressing IL-2 receptor subunit/β-Gal fragment constructs; read-out: IC50 of β-Gal activity generated on treatment; cited from earlier work
NK-92 cells = test: STAT5 phosphorylation in NK-92 cells; format: cell-based, human; conditions: 1 μg/mL Anti-hIL-2 neutralizing antibody
Description: NK-92 cells were seeded in a 24-well plate at 4×10^5 cells, in 1 mL starvation medium (SM), and incubated overnight at 37° C., 5% CO2. The starvation medium contained RPMI 1640+20% FBS+2 mM L-glutamine+1 mM NaPyr+10 mM HEPES+0.1 mM BME (no rhIL-2 supplement).
Treatment mixtures were of 1 μg/mL Anti-hIL-2 neutralizing antibody (0.2 mg/mL stock) or goat IgG control (1 mg/mL stock) were prepared.
The treatment mixtures and the antibody mix were added to the cells for 30 min at 37° C., 5% CO2. Each sample was then transferred to a 1.5 mL microfuge tube and spun down at 1,500 RPM for 5 minutes. The cells were washed in 1 mL PBS and centrifuged again.
A phosphatase and protease inhibitor cocktail (Thermo #78442) were added to mPER buffer at a 1:100 dilution. After the cells were pelleted, 50 μL of mPER buffer was added to each sample and pipetted repeatedly to homogenize.
The lysates were centrifuged at 14,000 RPM for 5 min at RT. The supernatants were transferred to clean tubes and stored frozen at −80° C.
In the Western Blot shown in FIG. 1, sample numbers 1-10 were probed with an anti-pSTAT5 antibody, sample numbers 1-10 were probed with an anti-STAT5 antibody, sample numbers 11-20 were probed with an anti-pSTAT5 antibody, and sample numbers 11-20 were probed with anti-STAT5 antibody. […]

[1] = test system: resting CD8 T-cells, resting CD4 T-cells, and resting Treg (CD25hi CD127lo) cells; test: pSTAT5 activation in human T-cells by flow cytometry; format: cell-based; conditions: 30 min incubation
Description: pSTAT5 activation of resting CD8 T-cells, resting CD4 T-cells, and resting Treg (CD25hi CD127lo) cells by the heterodimer of Example 14 was determined using the method described in Example 17.
The incubation time was 30 min and pSTAT5 was measured by flow cytometry.

IL-2: Recombinant human Interleukin-2
IC50 (IL-2 receptor subunit): ~26 nM
STAT5 phosphorylation with IL-2 neutralizing antibody added (NK-92 cells): suppressed
potency of pSTAT5 activation across human T-cell populations [1]: potency bias for Treg and CD4 T-cells
